## Membrane permeability of cyclic peptides

Data: CycPeptMPDB; original report Kelly et al. 2021, doi:10.1021/jacs.0c06115.

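Conditions beyond the assay type are not listed; see the original paper. The list need not hold all peptides of the study. Peptides that the database sets to -10, its floor, are left out.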

PAMPA measures passive passage through an artificial lipid membrane. Values are log10 P with P in cm/s, so -5 is more permeable than -7.

PAMPA (log10 cm/s),SMILES
-5.18,CC(=O)N1CCC[C@@H]1C(=O)N(C)[C@@H](CC(C)C)C(=O)N[C@@H]1C(=O)N(C)[C@H](CC(C)C)C(=O)N[C@H](CC(C)C)C(=O)N(C)[C@@H](CC(C)C)C(=O)N(C)[C@@H](C)C(=O)N[C@H](CC(C)C)C(=O)N2CCC[C@@H]2C(=O)O[C@@H]1C
-5.66,CC(=O)N1CCC[C@H]1C(=O)N(C)[C@@H](CC(C)C)C(=O)N[C@@H]1C(=O)N[C@@H](CC(C)C)C(=O)N(C)[C@@H](CC(C)C)C(=O)N[C@H](CC(C)C)C(=O)N(C)[C@@H](C)C(=O)N[C@@H](CC(C)C)C(=O)N2CCC[C@@H]2C(=O)O[C@@H]1C
-5.42,CC(=O)N1CCC[C@@H]1C(=O)N(C)[C@@H](CC(C)C)C(=O)N[C@@H]1C(=O)N(C)[C@H](CC(C)C)C(=O)N(C)[C@H](CC(C)C)C(=O)N[C@H](CC(C)C)C(=O)N(C)[C@@H](C)C(=O)N[C@H](CC(C)C)C(=O)N2CCC[C@H]2C(=O)O[C@@H]1C
-6.39,CC(=O)N1CCC[C@@H]1C(=O)N(C)[C@@H](CC(C)C)C(=O)N[C@@H]1C(=O)N[C@@H](CC(C)C)C(=O)N[C@@H](CC(C)C)C(=O)N(C)[C@H](CC(C)C)C(=O)N[C@@H](C)C(=O)N[C@H](CC(C)C)C(=O)N2CCC[C@@H]2C(=O)O[C@@H]1C
-6.09,CC(=O)N1CCC[C@@H]1C(=O)N(C)[C@@H](CC(C)C)C(=O)N[C@@H]1C(=O)N[C@@H](CC(C)C)C(=O)N[C@@H](CC(C)C)C(=O)N(C)[C@@H](CC(C)C)C(=O)N[C@@H](C)C(=O)N[C@@H](CC(C)C)C(=O)N2CCC[C@H]2C(=O)O[C@@H]1C
-5.40,CC(=O)N1CCC[C@@H]1C(=O)N(C)[C@@H](CC(C)C)C(=O)N[C@@H]1C(=O)N[C@H](CC(C)C)C(=O)N[C@@H](CC(C)C)C(=O)N(C)[C@H](CC(C)C)C(=O)N[C@@H](C)C(=O)N[C@@H](CC(C)C)C(=O)N2CCC[C@@H]2C(=O)O[C@@H]1C
-5.56,CC(=O)N1CCC[C@@H]1C(=O)N(C)[C@@H](CC(C)C)C(=O)N[C@@H]1C(=O)N[C@H](CC(C)C)C(=O)N(C)[C@H](CC(C)C)C(=O)N(C)[C@H](CC(C)C)C(=O)N[C@@H](C)C(=O)N[C@H](CC(C)C)C(=O)N2CCC[C@H]2C(=O)O[C@@H]1C
-5.22,CC(=O)N1CCC[C@H]1C(=O)N(C)[C@H](CC(C)C)C(=O)N[C@@H]1C(=O)N(C)[C@@H](CC(C)C)C(=O)N(C)[C@H](CC(C)C)C(=O)N[C@H](CC(C)C)C(=O)N(C)[C@H](C)C(=O)N[C@@H](CC(C)C)C(=O)N2CCC[C@H]2C(=O)O[C@@H]1C
-6.14,CC(=O)N1CCC[C@@H]1C(=O)N(C)[C@@H](CC(C)C)C(=O)N[C@@H]1C(=O)N[C@@H](CC(C)C)C(=O)N[C@H](CC(C)C)C(=O)N(C)[C@@H](CC(C)C)C(=O)N[C@@H](C)C(=O)N[C@H](CC(C)C)C(=O)N2CCC[C@H]2C(=O)O[C@@H]1C
-5.24,CC(=O)N1CCC[C@H]1C(=O)N(C)[C@@H](CC(C)C)C(=O)N[C@@H]1C(=O)N(C)[C@H](CC(C)C)C(=O)N(C)[C@@H](CC(C)C)C(=O)N(C)[C@H](CC(C)C)C(=O)N(C)[C@H](C)C(=O)N[C@@H](CC(C)C)C(=O)N2CCC[C@H]2C(=O)O[C@@H]1C
-6.67,CC(=O)N1CCC[C@@H]1C(=O)N(C)[C@H](CC(C)C)C(=O)N[C@@H]1C(=O)N[C@@H](CC(C)C)C(=O)N(C)[C@@H](CC(C)C)C(=O)N[C@@H](CC(C)C)C(=O)N[C@@H](C)C(=O)N[C@H](CC(C)C)C(=O)N2CCC[C@H]2C(=O)O[C@@H]1C
-5.89,CC(=O)N1CCC[C@@H]1C(=O)N(C)[C@H](CC(C)C)C(=O)N[C@@H]1C(=O)N[C@H](CC(C)C)C(=O)N[C@@H](CC(C)C)C(=O)N(C)[C@@H](CC(C)C)C(=O)N[C@@H](C)C(=O)N[C@H](CC(C)C)C(=O)N2CCC[C@H]2C(=O)O[C@@H]1C
-6.31,CC(=O)N1CCC[C@@H]1C(=O)N(C)[C@H](CC(C)C)C(=O)N[C@@H]1C(=O)N[C@@H](CC(C)C)C(=O)N[C@@H](CC(C)C)C(=O)N(C)[C@@H](CC(C)C)C(=O)N(C)[C@@H](C)C(=O)N[C@@H](CC(C)C)C(=O)N2CCC[C@@H]2C(=O)O[C@@H]1C
-6.56,CC(=O)N1CCC[C@H]1C(=O)N(C)[C@@H](CC(C)C)C(=O)N[C@@H]1C(=O)N[C@H](CC(C)C)C(=O)N[C@@H](CC(C)C)C(=O)N[C@@H](CC(C)C)C(=O)N(C)[C@@H](C)C(=O)N[C@@H](CC(C)C)C(=O)N2CCC[C@H]2C(=O)O[C@@H]1C
-5.77,CC(=O)N1CCC[C@@H]1C(=O)N(C)[C@@H](CC(C)C)C(=O)N[C@@H]1C(=O)N[C@H](CC(C)C)C(=O)N(C)[C@H](CC(C)C)C(=O)N[C@H](CC(C)C)C(=O)N(C)[C@H](C)C(=O)N[C@H](CC(C)C)C(=O)N2CCC[C@@H]2C(=O)O[C@@H]1C
-5.46,CC(=O)N1CCC[C@@H]1C(=O)N(C)[C@@H](CC(C)C)C(=O)N[C@@H]1C(=O)N(C)[C@H](CC(C)C)C(=O)N(C)[C@@H](CC(C)C)C(=O)N(C)[C@@H](CC(C)C)C(=O)N(C)[C@@H](C)C(=O)N[C@@H](CC(C)C)C(=O)N2CCC[C@H]2C(=O)O[C@@H]1C
-6.38,CC(=O)N1CCC[C@H]1C(=O)N(C)[C@@H](CC(C)C)C(=O)N[C@@H]1C(=O)N(C)[C@H](CC(C)C)C(=O)N[C@H](CC(C)C)C(=O)N[C@H](CC(C)C)C(=O)N[C@@H](C)C(=O)N[C@H](CC(C)C)C(=O)N2CCC[C@H]2C(=O)O[C@@H]1C
-5.21,CC(=O)N1CCC[C@@H]1C(=O)N(C)[C@@H](CC(C)C)C(=O)N[C@@H]1C(=O)N[C@@H](CC(C)C)C(=O)N(C)[C@H](CC(C)C)C(=O)N(C)[C@@H](CC(C)C)C(=O)N(C)[C@@H](C)C(=O)N[C@@H](CC(C)C)C(=O)N2CCC[C@@H]2C(=O)O[C@@H]1C
-5.33,CC(=O)N1CCC[C@H]1C(=O)N(C)[C@H](CC(C)C)C(=O)N[C@@H]1C(=O)N[C@@H](CC(C)C)C(=O)N(C)[C@H](CC(C)C)C(=O)N(C)[C@H](CC(C)C)C(=O)N[C@H](C)C(=O)N[C@@H](CC(C)C)C(=O)N2CCC[C@@H]2C(=O)O[C@@H]1C
-6.28,CC(=O)N1CCC[C@@H]1C(=O)N(C)[C@H](CC(C)C)C(=O)N[C@@H]1C(=O)N[C@H](CC(C)C)C(=O)N[C@H](CC(C)C)C(=O)N[C@H](CC(C)C)C(=O)N[C@@H](C)C(=O)N[C@H](CC(C)C)C(=O)N2CCC[C@H]2C(=O)O[C@@H]1C
-6.21,CC(=O)N1CCC[C@H]1C(=O)N(C)[C@@H](CC(C)C)C(=O)N[C@@H]1C(=O)N[C@@H](CC(C)C)C(=O)N[C@@H](CC(C)C)C(=O)N[C@@H](CC(C)C)C(=O)N(C)[C@H](C)C(=O)N[C@@H](CC(C)C)C(=O)N2CCC[C@H]2C(=O)O[C@@H]1C
-5.93,CC(=O)N1CCC[C@H]1C(=O)N(C)[C@@H](CC(C)C)C(=O)N[C@@H]1C(=O)N(C)[C@H](CC(C)C)C(=O)N(C)[C@H](CC(C)C)C(=O)N(C)[C@@H](CC(C)C)C(=O)N(C)[C@H](C)C(=O)N[C@H](CC(C)C)C(=O)N2CCC[C@@H]2C(=O)O[C@@H]1C